{"sequences": {"note": "Sequences of proteins named here, by UniProt entry; tags and fusion partners are left off.", "UniProt P43220, whole entry, looked up": "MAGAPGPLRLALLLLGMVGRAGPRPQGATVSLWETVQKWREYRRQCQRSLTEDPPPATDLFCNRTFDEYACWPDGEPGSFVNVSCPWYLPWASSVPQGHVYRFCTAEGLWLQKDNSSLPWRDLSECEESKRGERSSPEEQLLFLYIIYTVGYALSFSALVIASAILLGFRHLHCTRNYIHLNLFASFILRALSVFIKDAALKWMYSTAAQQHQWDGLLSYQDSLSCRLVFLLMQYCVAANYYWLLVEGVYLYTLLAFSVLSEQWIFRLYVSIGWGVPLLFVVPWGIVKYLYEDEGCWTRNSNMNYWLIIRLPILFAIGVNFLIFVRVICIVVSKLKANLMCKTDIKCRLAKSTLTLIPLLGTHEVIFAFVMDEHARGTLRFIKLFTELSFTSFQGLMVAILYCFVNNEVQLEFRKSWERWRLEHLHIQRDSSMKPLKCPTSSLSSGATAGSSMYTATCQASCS"}, "source": "PubChem BioAssay AID624172", "about": "(National Center for Advancing Translational Sciences (NCATS), 2012)", "note": "This is a selection; strong and weak results do not stand in their true shares. Calls of active or inactive are those of the source. The call rests on the fitted dose curve; in most records, active means well fitted activation curve with a large enough effect; inconclusive means small, poorly fitted or top-dose-only effect; inactive means no such curve, though single readings can be large or run the other way."}
{"biological_target": "Glucagon-like peptide 1 receptor (Homo sapiens) (UniProt P43220)", "assay": "qHTS of GLP-1 Receptor Agonists; further: % of control where 0% means no effect", "settings": "HEK293 GLP-1R CRE-luciferase, luminescence, 4-6 h, cells express a hypersensitive GLP-1R form; at 45.6 µM (top of the series) unless noted", "description": "The overall goal of this project was to develop a novel assay for discovering small molecule ligands for class B1 G protein-coupled receptors (GPCRs). Very few agonists (or inverse agonists) with generally weak activity for this entire group of physiologically important receptors are known to date. To establish proof-of-principle that this critical bottleneck can be overcome with a suitable screening approach, our studies focused on the class B1 receptor for glucagon-like peptide-1 (GLP-1R), a potential therapeutic target for diabetes and neurodegenerative disease.\nThe assay was developed in a \"mix and measure\" format using a cell-based functional readout. Toward this goal, stably transfected HEK293 cell clones were established that co-express (i) a cAMP-responsive luciferase reporter gene, and (ii) GLP-1Rs that upon ligand interaction either stimulate (agonists) or inhibit (inverse agonists) luciferase activity. In different cell lines to be used for screening, expressed GLP-1Rs are specifically optimized for high sensitivity detection of either weak agonists (hypersensitive receptor) or inverse agonists (constitutively active receptor mutant). In addition, control cell lines were developed that express either the cAMP-responsive reporter gene without recombinant GLP-1Rs (enabling initial exclusion of GLP-1R independent effects of candidate probes), or the reporter gene together with wild type GLP-1Rs (for confirmation of probe activity at this receptor), or the reporter gene in combination with the constitutively active orphan receptor GPR119 (enabling initial exclusion of GLP-1R independent inhibitory effects of candidate inverse agonists).\nTo that end, this assay was optimized for 1536-well format and screened against the MLSMR.\nNIH Molecular Libraries Probe Production Network [MLPCN]\nNIH Chemical Genomics Center [NCGC]\nPI Name: Martin Beinborn, Tufts Medical Center\nIn a white solid 1536-well plate, 6 uL of cells are dispensed in DMEM without phenol red, 10% Nu serum, and 1% pen-strep medium. The plates are then incubated for 12 hours at 37 deg C at 5% CO2 before 23 nL of compounds are added. After a 4-6 hr incubation at37 deg C and 5% CO2, 3 uL of detection reagent are added and after a 12 min incubation at RT, a luminescent read is obtained on the ViewLux."}
{"smiles": "CC(C)(C)C(=O)NC(Sc1ncccn1)C(Cl)(Cl)Cl", "note": "(stereo not drawn)", "activation": "inactive: 0.503%"}
{"smiles": "Clc1n[nH]nc1-c1nn[nH][15n]1", "activation": "inactive: 0.341%"}
{"smiles": "O=P1(N(CCCl)CCCl)NCCC(C(F)(F)F)O1", "note": "(stereo not drawn)", "activation": "inactive: -1.7%"}
{"smiles": "O=P1(Nc2ncccn2)COc2ccccc2OC1", "activation": "inactive: -10%"}
{"smiles": "Cc1ccc(S(=O)(=O)N(CCCN)CCCc2c(C)nc(N)[nH]c2=O)cc1", "activation": "inactive: -1.37%"}
{"smiles": "NS(=O)(=O)c1cccc(NC(=O)COC(=O)C(O)(c2ccccc2)c2ccccc2)c1", "activation": "inactive: 1.1%"}
{"smiles": "O=P1(Nc2ccc(Br)cn2)COc2ccccc2OC1", "activation": "inactive: -16.3%"}
{"smiles": "Cc1ccc(OCC(=O)OC2CN3CCC2CC3)cc1", "note": "(stereo not drawn)", "activation": "inactive: 3.8%"}
{"smiles": "O=[As](O)(c1cccs1)c1cccs1", "activation": "inactive: -8.61%"}
{"smiles": "Nc1cccc([As](=O)(O)c2ccccc2)c1", "activation": "inactive: 2.11%"}
{"smiles": "Cc1ccc(C(=O)OC2CN3CCC2CC3)cc1", "note": "(stereo not drawn)", "activation": "inactive: 1.49%"}
{"smiles": "CC1CCC(C(C)C)C(OP(=O)(Nc2ccccn2)c2ccccc2)C1", "note": "(stereo not drawn)", "activation": "inactive: 1.3%"}
{"smiles": "Cc1nn(-c2ccccc2)c2c1P(=O)(N1CCOCC1)N(C)C(c1ccccc1)=N2", "note": "(stereo not drawn)", "activation": "inactive: 2.12%"}
{"smiles": "CCCC1OP(=O)(Nc2ccccc2)OCC1CC", "note": "(stereo not drawn)", "activation": "inactive: 12%"}
{"smiles": "O=C(/C=C/c1ccccc1)OC1CN2CCC1CC2", "note": "(stereo not drawn)", "activation": "inactive: 10.8%"}
{"smiles": "CN(C)C1(CNC(=O)c2ccc(S(C)(=O)=O)cc2)CCCCC1", "activation": "inactive: -0.219%"}
{"smiles": "CCOC(=O)Nc1cccc([As](=O)(O)O)c1", "activation": "inactive: 3.13%"}
{"smiles": "O=[N+]([O-])c1ccc(Nc2ccc(Oc3ccc([N+](=O)[O-])cc3[N+](=O)[O-])cc2)c([N+](=O)[O-])c1", "activation": "inactive: 5.7%"}
{"smiles": "Cc1cc(SC(NC=O)C(Cl)(Cl)Cl)ncn1", "note": "(stereo not drawn)", "activation": "inactive: 1.4%"}
{"smiles": "O=P(Nc1ccccn1)(c1cccc2ccccc12)c1cccc2ccccc12", "activation": "inactive: 16.7%"}
{"smiles": "CC1CCNP(=O)(N(CCCl)CCCl)O1", "note": "(stereo not drawn)", "activation": "inactive: -8.46%"}
{"smiles": "O=C(O)C(O)c1ccc(N(CCCl)CCCl)cc1", "note": "(stereo not drawn)", "activation": "inactive: -1.7%"}
{"smiles": "CCOC(=O)Nc1ccc([As](=O)(O)O)c(O)c1", "activation": "inactive: -2.46%"}
{"smiles": "Cc1cc(SC(NC(=O)c2ccccc2)C(Cl)(Cl)Cl)nc(C(C)C)n1", "note": "(stereo not drawn)", "activation": "inactive: 0.116%"}
{"smiles": "CCCCOc1ccc(C(=O)NCC2(N3CCCCC3)CCCCC2)cc1OC", "activation": "inactive: 12.2%"}
{"smiles": "COP(=O)(OC)N1CC1c1ccccc1", "note": "(stereo not drawn)", "activation": "inactive: 0.905%"}
{"smiles": "CCOC(=O)c1ccc(NC(=O)C(C)(CCl)SC)cc1", "note": "(stereo not drawn)", "activation": "inactive: 8.07%"}
{"smiles": "CSc1ccc(Nc2c([N+](=O)[O-])cc([N+](=O)[O-])cc2[N+](=O)[O-])cc1", "activation": "inactive: -2.42%"}
{"smiles": "O=C(OC1CN2CCC1CC2)c1cccc([N+](=O)[O-])c1", "note": "(stereo not drawn)", "activation": "inactive: 0.633%"}
{"smiles": "CCC(C)N(CC(C)C)C(=S)SC(NC(C)=O)C(Cl)(Cl)Cl", "note": "(stereo not drawn)", "activation": "inactive: -6.82%"}
{"smiles": "COC(=O)C1(C)COP(=O)(N2CCCC2)OC1", "note": "(stereo not drawn)", "activation": "inactive: -4.08%"}
{"smiles": "COP1(=S)c2c(C)nn(CCC#N)c2N=C(c2ccc(F)cc2)N1C", "note": "(stereo not drawn)", "activation": "inactive: 18.1%"}
{"smiles": "O=C(Nc1ccncc1[N+](=O)[O-])c1ccc([N+](=O)[O-])cc1[N+](=O)[O-]", "activation": "inactive: -0.147%"}
{"smiles": "O=C(COc1ccccc1)OC1CN2CCC1CC2", "note": "(stereo not drawn)", "activation": "inactive: -5.95%"}
{"smiles": "O=C(O)C(=O)c1ccc(N(CCCl)CCCl)cc1", "activation": "inactive: -2.52%"}
{"smiles": "COc1ccc(N/C(=N/P(=O)(N2CCOCC2)N2CCOCC2)N2CCOCC2)cc1", "activation": "inactive: 0.557%"}
{"smiles": "O=[N+]([O-])c1cc(Oc2ccc([N+](=O)[O-])cc2C(F)(F)F)cc([N+](=O)[O-])c1", "activation": "inactive: -1.59%"}
{"smiles": "Cc1cc(=O)[nH]c(N[N+](=O)[O-])n1", "activation": "inactive: 1.6%"}
{"smiles": "O=C(OC1CN2CCC1CC2)C12CC3CC(CC(C3)C1)C2", "note": "(stereo not drawn)", "activation": "inactive: 18.1%"}
{"smiles": "Cc1c2c(nc3ccccc13)SC(C(Cl)Cl)C2", "note": "(stereo not drawn)", "activation": "inactive: 21.7%"}
{"smiles": "COc1cc(I)ccc1[As](=O)(O)O", "activation": "inactive: 6.49%"}
{"smiles": "COc1ccc2nc(NP(=O)(c3ccccc3)c3ccccc3)sc2c1", "activation": "inactive: 1.29%"}
{"smiles": "O=P1(N(CCCl)CCCl)OCCCN1CCCl", "note": "(stereo not drawn)", "activation": "inactive: -7.04%"}
{"smiles": "O=P1(N(CCCl)CCCl)Nc2ccccc2N1", "activation": "inactive: 21.2%"}
{"smiles": "CC(C)c1ccc(OP(=O)(Nc2ccccn2)Oc2ccccc2F)cc1", "note": "(stereo not drawn)", "activation": "inactive: 1.28%"}
{"smiles": "COC(=O)C1(C)COP(=O)(N2CCCCCC2)OC1", "note": "(stereo not drawn)", "activation": "inactive: -3.19%"}
{"smiles": "ClCCSc1nnc(-c2cccnc2)o1", "activation": "inactive: -1.07%"}
{"smiles": "O=[N+]([O-])c1cc([N+](=O)[O-])c(-c2ccn[nH]2)s1", "activation": "inactive: -0.968%"}
{"smiles": "CCN(CC)C(=S)SC(NC=O)C(Cl)(Cl)Cl", "note": "(stereo not drawn)", "activation": "inactive: -6.44%"}
{"smiles": "O=C(OC1CN2CCC1CC2)c1cccc2[nH]cnc12", "note": "(stereo not drawn)", "activation": "inactive: 0.0994%"}
{"smiles": "CC(C)NC(=O)NP(=O)(Oc1ccccc1)Oc1ccccc1", "activation": "inactive: 3.6%"}
{"smiles": "COc1cc(C(=O)NCC2(N3CCOCC3)CCCCC2)ccc1OCC(C)C", "activation": "inactive: 10.3%"}
{"smiles": "O=[N+]([O-])c1ccc(-c2cc([N+](=O)[O-])c(O)c([N+](=O)[O-])c2)cc1", "activation": "inactive: -1.64%"}
{"smiles": "O=[As](O)(c1ccc(O)cc1)c1ccccc1O", "activation": "inactive: 5.14%"}
{"smiles": "C[As](=O)(O)c1cccc(C(=O)O)c1", "activation": "inactive: -11.1%"}
{"smiles": "Cc1ccc2nc3c(c(C)c2c1)CC(C(Cl)Cl)S3", "note": "(stereo not drawn)", "activation": "inactive: 4.85%"}
{"smiles": "Cc1ccc(OP(=O)(Nc2ccc([N+](=O)[O-])cn2)Oc2ccc(C)cc2)cc1", "activation": "inactive: -4.17%"}
{"smiles": "[N-]=[N+]=NC1CCCCC1NC(=O)c1cc([N+](=O)[O-])cc([N+](=O)[O-])c1", "note": "(stereo not drawn)", "activation": "inactive: 3.4%"}
